In patent US20150004189A1:

Key:
HLA-DP DPB1*0301 (human) = assay: inhibition of radiolabeled peptide binding to purified HLA-DP
HLA-DP DPB1*0501 (human) = assay: as above
HLA-DP DPB1*0101 (human) = assay: as above
[1] = target: HLA DP molecule DPB1*0301 (human); assay: inhibition of radiolabeled peptide binding to purified HLA DP
[2] = target: HLA DP molecule DPB1*0301 (human); assay: competition vs radiolabeled peptide, purified HLA-DP
[3] = target: HLA DP molecule DPB1*0402 (human); assay: as above
HLA-DP DPB1*0201 (human) = assay: inhibition of radiolabeled peptide binding to purified HLA-DP
HLA-DP DPB1*0401 (human) = assay: as above
HLA-DP DPB1*2001 (human) = assay: as above
[4] = target: HLA-DR molecule DRB1*0162 (so in the source) (human); assay: inhibition of radiolabeled peptide binding to purified HLA class II
HLA-DP DPB1*1401 (human) = assay: inhibition of radiolabeled peptide binding to purified HLA-DP
[5] = target: HLA-DR DRB1*0162 (so in the source) (human); assay: inhibition of radiolabeled peptide binding to purified HLA class II
[6] = target: HLA-DP molecule DPB1*0301 (human); assay: inhibition of radiolabeled peptide binding to purified HLA-DP
HLA-DP DPB1*0402 (human) = assay: as above

Aln g 1 (11-25) peptide 3324.0004
IC50 (HLA-DP DPB1*0301 (human)): 820 nM

Aln g 1 (16-30) peptide 3324.0003
IC50 (HLA-DP DPB1*0501 (human)): 54 nM | IC50 (HLA-DP DPB1*0101 (human)): 388 nM

Alt a 1 peptide, position 6 (Peptide ID 3324.0015)
IC50 [1]: 61 nM

Alt a 1 peptide, position 11 (Peptide ID 3324.0017)
IC50 [1]: 71 nM

Alt a 1 peptide, position 116 (Peptide ID 3324.0014)
IC50 [1]: 241 nM

Alt a 1 peptide, position 141 (Peptide ID 3324.0011)
IC50 [1]: 16900 nM

Alt a 1 peptide, position 143 (Peptide ID 3324.0016)
IC50 [1]: 1120 nM

Alt a 6 peptide, position 161, … (Peptide ID 3324.0073)
IC50 [2]: 5070 nM | IC50 [3]: 69 nM

Alt a 7 peptide, position 6, … (Peptide ID 3324.0085)
IC50 [2]: 107 nM

Alt a 7 peptide, position 190, … (Peptide ID 3324.0080)
IC50 [2]: 36 nM

Asp f 17 peptide, position 91, … (Peptide ID 3324.0212)
IC50 [3]: 50000 nM

Bet v 1 (96-110) peptide 3324.0353
IC50 (HLA-DP DPB1*0301 (human)): 5610 nM

Bet v 1 (111-125) peptide 3324.0352
IC50 (HLA-DP DPB1*0301 (human)): 12300 nM

Bet v 6 (206-220) peptide 3324.0387
IC50 (HLA-DP DPB1*0301 (human)): 0.039 nM

Cha o 1 (86-100) peptide 3324.0517
IC50 (HLA-DP DPB1*0301 (human)): 3.1 nM

Cha o 1 peptide 96-110 … (Peptide ID 3324.0523)
IC50 (HLA-DP DPB1*0201 (human)): 5000 nM | IC50 (HLA-DP DPB1*0301 (human)): 96 nM

Cha o 1 peptide 211-225 … (Peptide ID 3324.0521)
IC50 (HLA-DP DPB1*0401 (human)): 760 nM | IC50 (HLA-DP DPB1*2001 (human)): 895 nM

Cha o 1 peptide, position 211 (Peptide ID 3324.0521)
IC50 [4]: 660 nM

Cla h 8 peptide, position 151, … (Peptide ID 3324.0603)
IC50 [3]: 10700 nM

Cla h 8 peptide, position 181, … (Peptide ID 3324.0602)
IC50 [2]: 695 nM

Cup a 1 peptide 66-80 … (Peptide ID 3324.0604)
IC50 (HLA-DP DPB1*0201 (human)): 1200 nM | IC50 (HLA-DP DPB1*0301 (human)): 1600 nM

Cup a 1 peptide 71-85 … (Peptide ID 3324.0607)
IC50 (HLA-DP DPB1*0201 (human)): 819 nM | IC50 (HLA-DP DPB1*0301 (human)): 7140 nM

Cup a 1 peptide 316-330 … (Peptide ID 3324.0606)
IC50 (HLA-DP DPB1*0301 (human)): 39600 nM

Cup s 1 peptide 91-105 … (Peptide ID 3324.0618)
IC50 (HLA-DP DPB1*0201 (human)): 304 nM

Cup s 1 peptide 96-110 … (Peptide ID 3324.0624)
IC50 (HLA-DP DPB1*0201 (human)): 18 nM | IC50 (HLA-DP DPB1*0301 (human)): 7020 nM

Cup s 1 peptide 211-225 … (Peptide ID 3324.0616)
IC50 (HLA-DP DPB1*0201 (human)): 92 nM | IC50 (HLA-DP DPB1*0501 (human)): 633 nM

Dac g 1 peptide 181-195 … (Peptide ID 3324.0655)
IC50 (HLA-DP DPB1*0201 (human)): 279 nM | IC50 (HLA-DP DPB1*0501 (human)): 500 nM | IC50 (HLA-DP DPB1*0301 (human)): 50000 nM | IC50 (HLA-DP DPB1*1401 (human)): 7750 nM | IC50 (HLA-DP DPB1*2001 (human)): 12300 nM

Dac g 2 peptide 11-25 … (Peptide ID 3324.0657)
IC50 (HLA-DP DPB1*0201 (human)): 672 nM | IC50 (HLA-DP DPB1*0301 (human)): 3070 nM

Dac g 2 peptide 16-30 … (Peptide ID 3324.0658)
IC50 (HLA-DP DPB1*0201 (human)): 2430 nM | IC50 (HLA-DP DPB1*0301 (human)): 18000 nM

Der f 1 peptide 131-145, Peptide ID 3324.0670
IC50 [5]: 501 nM

Der f 1 peptide 136-150, Peptide ID 3324.0666
IC50 [5]: 65 nM

Der p 1 (131-145) peptide 3324.0832
IC50 (HLA-DP DPB1*0301 (human)): 20 nM

Der p 1 (136-150) peptide 3324.0829
IC50 (HLA-DP DPB1*0301 (human)): 1600 nM

Der p 1 (176-190) peptide 3324.0831
IC50 (HLA-DP DPB1*0301 (human)): 4340 nM

Der p 1 peptide 131-145, Peptide ID 3324.0832
IC50 [5]: 70 nM

Der p 1 peptide 136-150, Peptide ID 3324.0829
IC50 [5]: 110 nM

Der p 4 (86-100) peptide 3324.0981
IC50 (HLA-DP DPB1*0501 (human)): 1600 nM | IC50 (HLA-DP DPB1*0301 (human)): 2.5 nM | IC50 (HLA-DP DPB1*1401 (human)): 1320 nM

Der p 4 (321-335) peptide 3324.0977
IC50 (HLA-DP DPB1*0301 (human)): 988 nM

Der p 4 (386-400) peptide 3324.0978
IC50 (HLA-DP DPB1*0301 (human)): 4120 nM

Der p 4 (411-425) peptide 3324.0980
IC50 (HLA-DP DPB1*0301 (human)): 8.4 nM

Der p 4 (416-430) peptide 3324.0974
IC50 (HLA-DP DPB1*0301 (human)): 0.67 nM

Der p 4 (476-490) peptide 3324.0975
IC50 (HLA-DP DPB1*0301 (human)): 24 nM

Der p 4 (482-496) peptide 3324.0971
IC50 (HLA-DP DPB1*0301 (human)): 286 nM

Der p 4 peptide 96-110, Peptide ID 3324.0987
IC50 [5]: 4780 nM

Der p 4 peptide 251-265, Peptide ID 3324.0976
IC50 [5]: 14 nM

Der p 4 peptide 321-335, Peptide ID 3324.0977
IC50 [5]: 9.2 nM

Der p 4 peptide 381-395, Peptide ID 3324.0986
IC50 [5]: 170 nM

Der p 4 peptide 386-400, Peptide ID 3324.0978
IC50 [5]: 75 nM

Der p 4 peptide 411-425, Peptide ID 3324.0980
IC50 [5]: 24 nM

Der p 4 peptide 476-490, Peptide ID 3324.0975
IC50 [5]: 281 nM

Der p 4 peptide 482-496, Peptide ID 3324.0971
IC50 [5]: 16 nM

Fel d 1 2 peptide 26-40, Peptide ID 3324.1052
IC50 [5]: 555 nM

Fel d 1 2 peptide 36-50, Peptide ID 3324.1055
IC50 [5]: 2470 nM

Lol p 1 peptide 176-190 … (Peptide ID 3324.1135)
IC50 (HLA-DP DPB1*0401 (human)): 383 nM | IC50 (HLA-DP DPB1*0501 (human)): 65 nM | IC50 (HLA-DP DPB1*0101 (human)): 114 nM | IC50 (HLA-DP DPB1*0301 (human)): 2900 nM | IC50 (HLA-DP DPB1*1401 (human)): 1050 nM | IC50 (HLA-DP DPB1*2001 (human)): 13000 nM

Lol p 2 peptide 56-70 … (Peptide ID 3324.1140)
IC50 (HLA-DP DPB1*0201 (human)): 9540 nM

Lol p 3 peptide, position 11, … (Peptide ID 3324.1142)
IC50 [6]: 11800 nM

Lol p 3 peptide, position 51, … (Peptide ID 3337.0031)
IC50 [6]: 6240 nM

Lol p 5 1 peptide, position 71, … (Peptide ID 3324.1175)
IC50 [6]: 339 nM

Lol p 5 1 peptide, position 151, … (Peptide ID 3324.1167)
IC50 [6]: 78 nM

Lol p 5 1 peptide, position 306, … (Peptide ID 3324.1184)
IC50 [6]: 81 nM

Lol p 11 peptide 111-125 … (Peptide ID 3324.1138)
IC50 (HLA-DP DPB1*0201 (human)): 110 nM | IC50 (HLA-DP DPB1*0301 (human)): 764 nM

Lol p 11 peptide 116-130 … (Peptide ID 3337.0029)
IC50 (HLA-DP DPB1*0201 (human)): 80 nM | IC50 (HLA-DP DPB1*0301 (human)): 1410 nM

Pha a 1 peptide, position 186, … (Peptide ID 3324.1428)
IC50 [6]: 8500 nM

Pha a 5 peptide, position 181, … (Peptide ID 3324.1442)
IC50 [6]: 22 nM

Pha a 5 peptide, position 201, … (Peptide ID 3324.1433)
IC50 [6]: 15 nM

Poa p 5 peptide 131-145, … (Peptide ID 3324.1576)
IC50 (HLA-DP DPB1*0501 (human)): 800 nM

Poa p 5 peptide 176-190, … (Peptide ID 3324.1578)
IC50 (HLA-DP DPB1*2001 (human)): 13 nM

Poa p 5 peptide 206-220, … (Peptide ID 3324.1583)
IC50 (HLA-DP DPB1*0101 (human)): 566 nM

Poa p 5 peptide 211-225, … (Peptide ID 3324.1579)
IC50 (HLA-DP DPB1*1401 (human)): 485 nM | IC50 (HLA-DP DPB1*2001 (human)): 352 nM

Poa p 5 peptide 221-235, … (Peptide ID 3324.1564)
IC50 (HLA-DP DPB1*0402 (human)): 5200 nM | IC50 (HLA-DP DPB1*0501 (human)): 891 nM | IC50 (HLA-DP DPB1*0101 (human)): 3570 nM | IC50 (HLA-DP DPB1*0301 (human)): 7.6 nM | IC50 (HLA-DP DPB1*1401 (human)): 2000 nM | IC50 (HLA-DP DPB1*2001 (human)): 84 nM

Poa p 5 peptide, position 56, … (Peptide ID 3324.1571)
IC50 [6]: 67 nM

Poa p 5 peptide, position 61, … (Peptide ID 3324.1575)
IC50 [6]: 39 nM

Que a 1 peptide 11-25 … (Peptide ID 3324.1587)
IC50 (HLA-DP DPB1*0201 (human)): 28 nM | IC50 (HLA-DP DPB1*0301 (human)): 326 nM

Que a 1 peptide 16-30 … (Peptide ID 3324.1585)
IC50 (HLA-DP DPB1*0201 (human)): 36 nM | IC50 (HLA-DP DPB1*0301 (human)): 30 nM

Que a 1 peptide 21-35 … (Peptide ID 3324.1588)
IC50 (HLA-DP DPB1*0201 (human)): 171 nM

Que a 1 peptide 141-155 … (Peptide ID 3324.1584)
IC50 (HLA-DP DPB1*0201 (human)): 46 nM | IC50 (HLA-DP DPB1*0301 (human)): 133 nM

Sal k 1 1 peptide 191-205, … (Peptide ID 3324.1590)
IC50 (HLA-DP DPB1*0201 (human)): 495 nM

Sal k 1 1 peptide 321-335, … (Peptide ID 3324.1589)
IC50 (HLA-DP DPB1*0201 (human)): 1780 nM
